# Results as given in patent US20250177383A1, “DI-CYCLOPROPYL BASED IL-17A MODULATORS AND USES THEREOF” (DICE ALPHA, INC., priority 2022, published 2025).
# Amino acid sequences for entries named in this document (tags omitted). Residues count along the entry.
# UniProt Q16552, 24-155 limits assumed: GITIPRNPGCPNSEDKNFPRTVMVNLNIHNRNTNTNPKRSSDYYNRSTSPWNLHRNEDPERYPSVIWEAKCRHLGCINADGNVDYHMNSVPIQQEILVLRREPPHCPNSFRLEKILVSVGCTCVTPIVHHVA
# UniProt Q96PD4, 31-163 limits assumed: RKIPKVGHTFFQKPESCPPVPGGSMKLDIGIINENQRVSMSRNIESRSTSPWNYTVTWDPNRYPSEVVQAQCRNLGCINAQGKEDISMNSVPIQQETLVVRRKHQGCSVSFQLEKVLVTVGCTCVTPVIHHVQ
# Target: IL-17A/F (Homo sapiens, UniProt Q16552+Q96PD4)
# Assay: IL-17A/F HEK-Blue Cell Assay
# Conditions: HEK-Blue IL-17 reporter cells, IL-17A/F stimulation, 20 hours, SEAP readout
row,SMILES,IL17AF HEK Blue pIC50
1,"CO[C@@H](C)C(=O)N[C@@H](C(=O)N1CCN(C)C(CF)C1)[C@@H](C)c1ccc(NC(=O)[C@@H](NC(=O)C2(F)CC2)C(C2CC2)C2CC2)c(F)c1 (single isomer, unassigned)",C (7>C≥5)
2,"CCn1nccc1C(=O)N[C@H](C(=O)Nc1ccc([C@H](C)[C@@H](NC(=O)C(C)OCCOC)C(=O)N2CCN(C)[C@H](C)C2)cc1F)C(C1CC1)C1CC1 (single isomer, unassigned)",C (7>C≥5)
3,CCOC(=O)N1CCC[C@H]1C(=O)N[C@@H](C(=O)N1CCN(C)CC1)[C@@H](C)c1ccc(NC(=O)[C@@H](NC(=O)C2(F)CC2)C(C2CC2)C2CC2)c(F)c1,C (7>C≥5)
4,"CCC(=O)NC(C(=O)N1CCN(C)CC1)C(c1ccc(NC(=O)[C@@H](NC(=O)c2ccnn2CC)C(C2CC2)C2CC2)c(F)c1)C(F)(F)F (single isomer, unassigned)",C (7>C≥5)
5,CCOC(=O)N[C@@H](C)C(=O)N[C@@H](C(=O)N1CCN(C)[C@H](C)C1)[C@@H](C)c1ccc(NC(=O)[C@@H](NC(=O)c2nonc2C)C(C2CC2)C2CC2)c(F)c1,B (8>B≥7 as B)

# Target: IL-17A/A (Homo sapiens, UniProt Q16552)
# Assay: IL-17A/A HEK-Blue Cell Assay
# Conditions: HEK-Blue IL-17 reporter cells, IL-17A/A stimulation, 20 hours, SEAP readout
row,SMILES,IL17 AA HEK-5 pIC50
1,"CO[C@@H](C)C(=O)N[C@@H](C(=O)N1CCN(C)C(CF)C1)[C@@H](C)c1ccc(NC(=O)[C@@H](NC(=O)C2(F)CC2)C(C2CC2)C2CC2)c(F)c1 (single isomer, unassigned)",A (pIC50 of greater than or equal 8 as A)
2,"CCn1nccc1C(=O)N[C@H](C(=O)Nc1ccc([C@H](C)[C@@H](NC(=O)C(C)OCCOC)C(=O)N2CCN(C)[C@H](C)C2)cc1F)C(C1CC1)C1CC1 (single isomer, unassigned)",A (pIC50 of greater than or equal 8 as A)
3,CCOC(=O)N1CCC[C@H]1C(=O)N[C@@H](C(=O)N1CCN(C)CC1)[C@@H](C)c1ccc(NC(=O)[C@@H](NC(=O)C2(F)CC2)C(C2CC2)C2CC2)c(F)c1,A (pIC50 of greater than or equal 8 as A)
4,"CCC(=O)NC(C(=O)N1CCN(C)CC1)C(c1ccc(NC(=O)[C@@H](NC(=O)c2ccnn2CC)C(C2CC2)C2CC2)c(F)c1)C(F)(F)F (single isomer, unassigned)",C (7>C≥5)
5,CCOC(=O)N[C@@H](C)C(=O)N[C@@H](C(=O)N1CCN(C)[C@H](C)C1)[C@@H](C)c1ccc(NC(=O)[C@@H](NC(=O)c2nonc2C)C(C2CC2)C2CC2)c(F)c1,A (pIC50 of greater than or equal 8 as A)
